Several values for one entry are separate records, joined by “and”; a condition that tells them apart may be missing. Equal values may be shown once.
Experiments:
Assay in all cases: radiometric filter-binding kinase assay, Kinase HotSpot
Conditions in all cases: compound 0.5 µM; ATP 10 µM
[1] = target: MYLK (human) (UniProt Q15746)
[2] = target: NEK4 (human) (UniProt P51957)
[3] = target: HIPK4 (human) (UniProt Q8NE63)
[4] = target: PRKCB2 (human) (UniProt P05771)
[5] = target: CHEK1 (human) (UniProt O14757)
[6] = target: MAP3K2 (human) (UniProt Q9Y2U5)
[7] = target: ERBB4 (human) (UniProt Q15303)
[8] = target: LYN (human) (UniProt P07948)
[9] = target: CLK2 (human) (UniProt P49760)
[10] = target: FLT3 (human) (UniProt P36888)
[11] = target: JAK2 JH1 JH2 (human) (UniProt O60674)
[12] = target: PLK3 (human) (UniProt Q9H4B4)
[13] = target: NEK1 (human) (UniProt Q96PY6)
[14] = target: BRAF (human) (UniProt P15056)
[15] = target: FGR (human) (UniProt P09769)
[16] = target: ROS1 (human) (UniProt P08922)
[17] = target: PRKCA (human) (UniProt P17252)
[18] = target: OXSR1 (human) (UniProt O95747)
[19] = target: MARK3 (human) (UniProt P27448)
[20] = target: PRKCI (human) (UniProt P41743)
[21] = target: CSNK2A2 (human) (UniProt P19784)
[22] = target: GSK3A (human) (UniProt P49840)
[23] = target: MAP3K11 (human) (UniProt Q16584)
[24] = target: FGFR3 (human) (UniProt P22607)
[25] = target: PHKG1 (human) (UniProt Q16816)
[26] = target: WNK3 (human) (UniProt Q9BYP7)
[27] = target: PASK (human) (UniProt Q96RG2)
[28] = target: PTK2B (human) (UniProt Q14289)
[29] = target: PRKG2 (human) (UniProt Q13237)
[30] = target: EPHB1 (human) (UniProt P54762)
[31] = target: ADRBK2 (human) (UniProt P35626)
[32] = target: CAMK1G (human) (UniProt Q96NX5)
[33] = target: CAMK2B (human) (UniProt Q13554)
[34] = target: PRKD2 (human) (UniProt Q9BZL6)
[35] = target: SLK (human) (UniProt Q9H2G2)
[36] = target: NEK9 (human) (UniProt Q8TD19)
[37] = target: ALK (human) (UniProt Q9UM73)
[38] = target: CLK3 (human) (UniProt P49761)
[39] = target: ADRBK1 (human) (UniProt P25098)
[40] = target: STK4 (human) (UniProt Q13043)
[41] = target: ULK1 (human) (UniProt O75385)
[42] = target: MAP3K3 (human) (UniProt Q99759)

Protein sequences, listed by entry. Tags and fused reporters are not part of them. Lines headed by an entry give the natural chain unless they say otherwise; changes in a name come on top.
UniProt Q8NE63: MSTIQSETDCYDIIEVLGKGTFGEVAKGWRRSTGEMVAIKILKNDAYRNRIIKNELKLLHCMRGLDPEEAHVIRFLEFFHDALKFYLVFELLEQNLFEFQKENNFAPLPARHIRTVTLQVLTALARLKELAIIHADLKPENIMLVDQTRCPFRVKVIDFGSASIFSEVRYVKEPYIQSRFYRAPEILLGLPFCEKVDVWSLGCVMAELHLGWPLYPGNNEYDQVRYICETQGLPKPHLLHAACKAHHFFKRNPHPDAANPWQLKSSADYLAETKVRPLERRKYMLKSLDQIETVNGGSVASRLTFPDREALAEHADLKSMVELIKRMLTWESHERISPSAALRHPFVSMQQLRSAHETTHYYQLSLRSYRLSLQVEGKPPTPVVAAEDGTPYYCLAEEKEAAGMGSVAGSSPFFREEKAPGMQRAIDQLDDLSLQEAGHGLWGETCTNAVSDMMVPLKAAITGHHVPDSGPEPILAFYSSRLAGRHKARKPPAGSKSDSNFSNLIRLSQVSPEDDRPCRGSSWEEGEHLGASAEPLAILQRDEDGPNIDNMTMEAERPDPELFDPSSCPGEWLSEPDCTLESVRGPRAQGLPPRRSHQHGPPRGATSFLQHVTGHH
UniProt O14757: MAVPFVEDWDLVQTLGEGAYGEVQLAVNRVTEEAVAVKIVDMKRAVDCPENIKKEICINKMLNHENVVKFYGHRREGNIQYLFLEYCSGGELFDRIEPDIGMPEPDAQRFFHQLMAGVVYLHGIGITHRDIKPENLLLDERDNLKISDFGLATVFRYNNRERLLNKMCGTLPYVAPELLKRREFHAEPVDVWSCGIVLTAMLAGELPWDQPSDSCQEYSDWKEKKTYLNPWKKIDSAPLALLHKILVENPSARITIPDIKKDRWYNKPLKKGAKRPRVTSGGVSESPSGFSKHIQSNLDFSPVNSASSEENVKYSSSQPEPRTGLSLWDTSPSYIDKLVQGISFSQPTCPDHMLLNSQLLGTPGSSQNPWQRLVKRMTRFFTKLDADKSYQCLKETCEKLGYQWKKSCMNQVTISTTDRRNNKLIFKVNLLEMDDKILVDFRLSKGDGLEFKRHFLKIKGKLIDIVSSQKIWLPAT
UniProt Q15303, whole entry, looked up: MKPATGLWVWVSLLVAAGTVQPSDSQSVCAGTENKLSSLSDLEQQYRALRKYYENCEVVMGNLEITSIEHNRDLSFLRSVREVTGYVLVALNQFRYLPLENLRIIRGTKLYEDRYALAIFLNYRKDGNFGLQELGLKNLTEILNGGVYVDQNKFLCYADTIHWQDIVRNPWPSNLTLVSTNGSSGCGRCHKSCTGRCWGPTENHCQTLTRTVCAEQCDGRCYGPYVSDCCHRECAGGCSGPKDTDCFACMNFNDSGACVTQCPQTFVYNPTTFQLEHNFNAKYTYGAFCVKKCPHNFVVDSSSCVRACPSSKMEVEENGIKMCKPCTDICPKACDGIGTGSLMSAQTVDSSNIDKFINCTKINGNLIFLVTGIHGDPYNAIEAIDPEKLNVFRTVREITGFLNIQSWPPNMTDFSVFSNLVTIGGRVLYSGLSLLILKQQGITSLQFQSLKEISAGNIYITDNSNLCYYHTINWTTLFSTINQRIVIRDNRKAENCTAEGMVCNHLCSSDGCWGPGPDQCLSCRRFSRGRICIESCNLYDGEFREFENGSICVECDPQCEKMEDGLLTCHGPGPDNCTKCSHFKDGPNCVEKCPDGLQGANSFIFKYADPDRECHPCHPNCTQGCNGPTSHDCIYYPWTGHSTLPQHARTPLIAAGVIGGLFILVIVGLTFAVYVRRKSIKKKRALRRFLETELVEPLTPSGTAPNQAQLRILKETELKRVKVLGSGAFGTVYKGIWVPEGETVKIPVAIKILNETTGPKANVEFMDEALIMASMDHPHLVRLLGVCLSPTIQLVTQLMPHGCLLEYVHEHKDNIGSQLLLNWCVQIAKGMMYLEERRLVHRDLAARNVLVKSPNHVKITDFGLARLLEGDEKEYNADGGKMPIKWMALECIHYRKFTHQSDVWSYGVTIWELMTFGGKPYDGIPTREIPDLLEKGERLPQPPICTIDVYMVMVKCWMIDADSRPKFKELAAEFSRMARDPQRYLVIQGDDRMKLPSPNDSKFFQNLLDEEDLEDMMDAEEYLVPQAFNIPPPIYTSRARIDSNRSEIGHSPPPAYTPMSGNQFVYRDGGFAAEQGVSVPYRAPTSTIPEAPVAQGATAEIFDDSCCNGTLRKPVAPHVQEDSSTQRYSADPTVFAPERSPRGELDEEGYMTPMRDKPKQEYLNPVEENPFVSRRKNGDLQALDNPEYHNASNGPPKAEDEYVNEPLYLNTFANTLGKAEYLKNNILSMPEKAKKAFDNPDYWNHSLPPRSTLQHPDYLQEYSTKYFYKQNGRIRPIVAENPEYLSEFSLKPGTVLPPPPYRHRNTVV
UniProt P22607, whole entry, looked up: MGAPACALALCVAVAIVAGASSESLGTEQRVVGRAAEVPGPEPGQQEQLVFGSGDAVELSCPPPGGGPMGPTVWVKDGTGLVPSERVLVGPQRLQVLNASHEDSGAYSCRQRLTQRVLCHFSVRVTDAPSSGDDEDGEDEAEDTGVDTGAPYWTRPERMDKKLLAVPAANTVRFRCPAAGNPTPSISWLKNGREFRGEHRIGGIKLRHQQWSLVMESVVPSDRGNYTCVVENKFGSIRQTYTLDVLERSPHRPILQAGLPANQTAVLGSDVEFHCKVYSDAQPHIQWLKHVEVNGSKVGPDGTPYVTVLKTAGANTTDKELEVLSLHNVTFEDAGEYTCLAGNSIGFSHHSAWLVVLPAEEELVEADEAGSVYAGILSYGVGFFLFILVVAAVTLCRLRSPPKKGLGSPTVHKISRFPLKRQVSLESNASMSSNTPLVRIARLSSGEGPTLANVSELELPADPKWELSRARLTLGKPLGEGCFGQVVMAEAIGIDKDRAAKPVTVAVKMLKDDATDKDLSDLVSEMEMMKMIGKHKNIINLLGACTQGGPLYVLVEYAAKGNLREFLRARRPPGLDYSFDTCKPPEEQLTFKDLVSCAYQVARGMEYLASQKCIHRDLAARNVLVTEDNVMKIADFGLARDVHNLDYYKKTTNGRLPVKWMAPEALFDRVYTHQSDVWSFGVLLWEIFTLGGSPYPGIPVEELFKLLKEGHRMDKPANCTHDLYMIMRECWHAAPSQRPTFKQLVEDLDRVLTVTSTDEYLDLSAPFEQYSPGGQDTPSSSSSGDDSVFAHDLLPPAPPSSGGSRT
UniProt Q8TD19: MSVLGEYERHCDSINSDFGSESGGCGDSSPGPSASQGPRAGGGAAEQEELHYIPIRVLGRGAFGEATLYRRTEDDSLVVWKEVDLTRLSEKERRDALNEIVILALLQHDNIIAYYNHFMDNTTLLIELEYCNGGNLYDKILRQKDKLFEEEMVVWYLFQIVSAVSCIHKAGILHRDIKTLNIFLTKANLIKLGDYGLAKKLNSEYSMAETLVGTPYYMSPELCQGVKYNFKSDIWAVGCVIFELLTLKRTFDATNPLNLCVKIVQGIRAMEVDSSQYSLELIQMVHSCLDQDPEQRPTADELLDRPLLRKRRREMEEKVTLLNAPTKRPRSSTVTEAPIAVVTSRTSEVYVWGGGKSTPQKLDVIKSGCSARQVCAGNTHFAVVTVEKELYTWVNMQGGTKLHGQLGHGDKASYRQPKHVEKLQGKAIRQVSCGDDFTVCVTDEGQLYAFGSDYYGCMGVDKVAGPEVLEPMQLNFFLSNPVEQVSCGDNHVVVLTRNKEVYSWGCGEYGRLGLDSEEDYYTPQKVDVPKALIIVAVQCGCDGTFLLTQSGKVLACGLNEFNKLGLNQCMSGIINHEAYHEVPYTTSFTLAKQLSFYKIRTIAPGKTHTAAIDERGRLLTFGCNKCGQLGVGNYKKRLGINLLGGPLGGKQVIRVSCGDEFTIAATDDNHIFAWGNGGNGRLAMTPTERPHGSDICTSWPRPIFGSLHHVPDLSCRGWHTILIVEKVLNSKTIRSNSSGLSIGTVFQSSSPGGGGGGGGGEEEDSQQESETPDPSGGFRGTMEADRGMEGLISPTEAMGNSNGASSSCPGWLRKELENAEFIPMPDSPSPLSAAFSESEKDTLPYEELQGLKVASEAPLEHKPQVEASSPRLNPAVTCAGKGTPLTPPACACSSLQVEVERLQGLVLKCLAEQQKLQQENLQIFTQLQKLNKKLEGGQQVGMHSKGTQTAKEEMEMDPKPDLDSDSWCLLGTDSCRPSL
UniProt Q9UM73: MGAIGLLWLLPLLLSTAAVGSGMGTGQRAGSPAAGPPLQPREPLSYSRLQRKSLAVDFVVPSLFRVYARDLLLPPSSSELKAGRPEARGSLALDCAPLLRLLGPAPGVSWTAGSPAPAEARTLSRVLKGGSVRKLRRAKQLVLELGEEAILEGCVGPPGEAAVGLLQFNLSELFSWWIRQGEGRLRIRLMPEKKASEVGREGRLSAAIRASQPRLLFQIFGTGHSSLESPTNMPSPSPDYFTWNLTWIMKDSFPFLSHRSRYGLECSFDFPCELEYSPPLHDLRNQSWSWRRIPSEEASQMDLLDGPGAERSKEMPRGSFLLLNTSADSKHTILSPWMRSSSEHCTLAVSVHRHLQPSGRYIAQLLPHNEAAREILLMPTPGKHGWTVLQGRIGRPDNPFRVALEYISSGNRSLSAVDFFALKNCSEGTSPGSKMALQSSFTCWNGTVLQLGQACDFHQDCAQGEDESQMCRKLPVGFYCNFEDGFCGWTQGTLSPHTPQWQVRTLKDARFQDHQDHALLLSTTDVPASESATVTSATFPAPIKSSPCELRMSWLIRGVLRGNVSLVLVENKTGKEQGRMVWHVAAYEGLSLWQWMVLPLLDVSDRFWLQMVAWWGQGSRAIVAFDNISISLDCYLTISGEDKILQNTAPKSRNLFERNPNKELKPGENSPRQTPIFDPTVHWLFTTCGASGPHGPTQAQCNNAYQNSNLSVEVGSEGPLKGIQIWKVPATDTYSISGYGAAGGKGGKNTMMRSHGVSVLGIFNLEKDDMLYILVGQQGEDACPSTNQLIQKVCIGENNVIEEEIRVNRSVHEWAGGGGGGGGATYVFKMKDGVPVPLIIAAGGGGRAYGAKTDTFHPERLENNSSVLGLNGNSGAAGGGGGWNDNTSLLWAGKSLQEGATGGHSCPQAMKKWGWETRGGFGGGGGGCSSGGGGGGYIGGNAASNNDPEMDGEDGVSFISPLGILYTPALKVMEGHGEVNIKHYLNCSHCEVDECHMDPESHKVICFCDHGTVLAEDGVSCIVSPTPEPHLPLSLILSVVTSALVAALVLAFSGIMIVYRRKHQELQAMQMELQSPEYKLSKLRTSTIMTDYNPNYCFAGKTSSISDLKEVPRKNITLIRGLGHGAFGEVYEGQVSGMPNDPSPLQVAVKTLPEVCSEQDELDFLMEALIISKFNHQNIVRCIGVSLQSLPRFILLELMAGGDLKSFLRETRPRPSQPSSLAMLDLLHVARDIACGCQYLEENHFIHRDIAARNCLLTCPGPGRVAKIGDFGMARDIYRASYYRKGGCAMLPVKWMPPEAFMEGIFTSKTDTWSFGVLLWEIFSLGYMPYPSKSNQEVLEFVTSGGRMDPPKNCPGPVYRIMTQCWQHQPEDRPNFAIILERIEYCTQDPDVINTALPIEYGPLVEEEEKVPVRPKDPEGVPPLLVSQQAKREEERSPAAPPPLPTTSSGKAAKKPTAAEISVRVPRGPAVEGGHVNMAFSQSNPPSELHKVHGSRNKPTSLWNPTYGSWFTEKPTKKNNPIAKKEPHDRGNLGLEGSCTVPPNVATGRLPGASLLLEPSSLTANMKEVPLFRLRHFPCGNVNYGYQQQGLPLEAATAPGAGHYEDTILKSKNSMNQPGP

`CO[C@H]1[C@@H](OC)C[C@H](C)[C@@H](OC)C2=CC(=O)C=C(NC(=O)/C(C)=C\C=C/[C@H](OC)[C@@H](OC(N)=O)/C(C)=C\[C@@H]1C)C2=O` showed a residual activity [1] of 97.6%, a residual activity [2] of 95.4% and a residual activity [3] of 108%. The residual activity [4] was 96.9%, the residual activity [5] was 95.4% and the residual activity [6] was 102%. For the same molecule, the residual activity [7] was 99.9%, the residual activity [8] was 101% and 109% and the residual activity [9] was 89.3%. It also gave a residual activity [10] of 96.8%, a residual activity [11] of 94.2% and a residual activity [12] of 100%. For the same molecule, the residual activity [13] was 100%, the residual activity [14] was 95.7% and the residual activity [15] was 90.3%. For the same molecule, the residual activity [16] was 91.9%, the residual activity [17] was 123% and the residual activity [18] was 107%. For the same molecule, the residual activity [19] was 112%, the residual activity [20] was 95.4% and the residual activity [21] was 90.8%. For the same molecule, the residual activity [22] was 113%, the residual activity [23] was 90% and the residual activity [24] was 93.9%. It also gave a residual activity [25] of 100%, a residual activity [26] of 99.4% and a residual activity [27] of 95.1%. The residual activity [28] was 104%, the residual activity [29] was 98.2% and the residual activity [30] was 104%. The residual activity [31] was 101%, the residual activity [32] was 105% and the residual activity [33] was 100%. For the same molecule, the residual activity [34] was 93.7%, the residual activity [35] was 97.1% and the residual activity [36] was 103%. The residual activity [37] was 89.7%, the residual activity [38] was 93.1% and the residual activity [39] was 95.7%. For the same molecule, the residual activity [40] was 95.7%, the residual activity [41] was 92.7% and the residual activity [42] was 103%.

— the kinase profiling compilation of Christmann-Franck et al. (2016)
